Data reported in PubChem BioAssay AID256 (DTP/NCI, 2004).
Toxic doses and inconclusive results are not listed.

Tested on: CD2F1 mice, L1210 leukemia ip, survival T/C
Experiment: NCI In Vivo Anticancer Drug Screen. Data for tumor model L1210 Leukemia (intraperitoneal) in CD2F1 (CDF1) mice
Conditions: higher = longer survival
Procedure, shortened: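 Each value reflects a quotient of treated over vehicle control outcomes in mice with a transplanted tumor.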

CN(Cc1cnc2nc(N)nc(N)c2n1)c1ccc(C(=O)N[C@@H](CCC(=O)O)C(=O)O)cc1
T/C (endpoint: mean survival time, dose: 0.25 mg/kg/injection, schedule: Q03HX024 (ip), vehicle: saline): 162 % of control
T/C (endpoint: mean survival time, dose: 0.67 mg/kg/injection, schedule: Q01DX009 (ip), vehicle: sodium bicarbonate): 162 % of control
T/C (endpoint: mean survival time, dose: 1.5 mg/kg/injection, schedule: Q01DX009 (ip), vehicle: other): 103 % of control
T/C (endpoint: mean survival time, dose: 2.0 mg/kg/injection, schedule: Q01DX009 (ip), vehicle: saline with Tween-80): 172 % of control
T/C (endpoint: mean survival time, dose: 4.0 mg/kg/injection, schedule: Q03DX003 (ip), vehicle: sodium bicarbonate): 172 % of control
T/C (endpoint: mean survival time, dose: 5.0 mg/kg/injection, schedule: Q04DX003 (ip), vehicle: sodium bicarbonate): 172 % of control
T/C (endpoint: mean survival time, dose: 8.0 mg/kg/injection, schedule: Q04DX003 (ip), vehicle: saline): 162 % of control
T/C (endpoint: median survival time, dose: 0.75 mg/kg/injection, schedule: Q01DX009 (ip), vehicle: sodium bicarbonate): 151 % of control
T/C (endpoint: median survival time, dose: 3.0 mg/kg/injection, schedule: Q01DX005 (ip), vehicle: sodium bicarbonate): 172 % of control
T/C (endpoint: median survival time, dose: 3.13 mg/kg/injection, schedule: Q01DX001 (ip), vehicle: sodium bicarbonate): 103 % of control
T/C (endpoint: median survival time, dose: 60.0 mg/kg/injection, schedule: Q01DX001 (ip), vehicle: sodium bicarbonate): 151 % of control
T/C (endpoint: median survival time, dose: 72.0 mg/kg/injection, schedule: Q01DX001 (ip), vehicle: sodium bicarbonate): 162 % of control
T/C (endpoint: median survival time, dose: 100.0 mg/kg/injection, schedule: Q01DX001 (ip), vehicle: sodium bicarbonate): 151 % of control
